What was measured:
[1] = target: T1, Translocator protein (Homo sapiens, UniProt P30536); test: Displacement of [3H]PK11195 from human TSPO A147T mutant expressed in HEK293 cells after 90 mins by scintillation counting method; type: cell-based
In short: (§1)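 Intact stably transfected HEK293 cells detached with PBS/0.04% EDTA (5 min, 37 °C), resuspended in 50 mM Tris-HCl; 1x10^6 cells incubated with competitor and 10 nM [3H]PK 11195, otherwise as membrane assay (90 min, 4 °C, 1 µM PK 11195 nonspecific, filtration, scintillation).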

Amino acid sequences for entries named in this document (tags omitted).
UniProt P30536, whole entry: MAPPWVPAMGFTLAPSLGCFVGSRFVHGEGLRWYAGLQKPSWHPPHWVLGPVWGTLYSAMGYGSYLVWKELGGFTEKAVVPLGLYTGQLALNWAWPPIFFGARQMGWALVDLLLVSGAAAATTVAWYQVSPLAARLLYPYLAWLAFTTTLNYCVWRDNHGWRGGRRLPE

[2] = target: T1, Translocator protein; test: Displacement of [3H]PK11195 from wild-type human TSPO expressed in HEK293 cells after 90 mins by scintillation counting method; type: cell-based; in short: as §1
[3] = target: T1, Translocator protein; test: Displacement of [3H]PK11195 from wild-type human TSPO expressed in HEK293 cell membranes after 90 mins by scintillation counting method
In short: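 Membranes from stably transfected HEK293 cells (PBS/0.04% EDTA detachment, homogenised in Tris-HCl, washed by 48000 g spins), 20 µg protein/well for WT or 10 µg/well for A147T, incubated with 10 nM [3H]PK 11195 and competitor at log-spaced 3.1 nM–10 µM, 90 min, 4 °C.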

In the case of `CC[C@@H](C)N(C)C(=O)c1cc2ccccc2c(-c2ccccc2Cl)n1` [(R)PK-11195], the Ki [1] is reported as 31.5 nM, the Ki [2] is reported as 13.6 nM and the Ki [3] is reported as 22.5 nM.

— ChEMBL document CHEMBL4334481, “First Nondiscriminating Translocator Protein Ligands Produced from a Carbazole Scaffold” (J Med Chem, 2019)
